Consider one molecule from patent US4977267A, “Intermediates for pyridyloxy compounds having utility as anti-peptic ulcer agents” (Fujirebio Kabushiki Kaisha, priority 1987, dated 1990).

Protein sequences, listed by entry. Tags and fused reporters are not part of them.
UniProt P47747, whole entry: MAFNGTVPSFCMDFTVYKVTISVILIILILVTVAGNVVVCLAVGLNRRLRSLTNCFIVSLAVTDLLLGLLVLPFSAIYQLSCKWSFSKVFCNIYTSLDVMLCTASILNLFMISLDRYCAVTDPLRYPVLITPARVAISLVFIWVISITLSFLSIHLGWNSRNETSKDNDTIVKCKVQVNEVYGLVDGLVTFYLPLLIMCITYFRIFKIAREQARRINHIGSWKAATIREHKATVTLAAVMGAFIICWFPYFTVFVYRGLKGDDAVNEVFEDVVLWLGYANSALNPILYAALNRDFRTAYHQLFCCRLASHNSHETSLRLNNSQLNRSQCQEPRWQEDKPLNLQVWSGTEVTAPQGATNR

The target of this experiment is T1, histamine H2 receptor (Cavia porcellus, UniProt P47747).
T1 construct: the right atrium was dissected from the hearts; from tissue; host or cells: isolated right atrium of male Hartley-strain guinea pigs
Briefly: Test on histamine H2 receptor antagonizing activity (isolated right atrium). More on the design: species or system Hartley-strain guinea pigs. Conditions: guinea pig right atrium, heart rate; histamine dose-response; test compound 1×10^-6, 1×10^-7 M, 10 minutes; Van Rossum method; read-out: pA2 (converted). The procedure:
Test on histamine H2 receptor antagonizing activity
Hartley-strain guinea pigs (male 300 to 350 g) were stunned with a blow to the head. The heart was removed, and the right atrium was dissected from the hearts in the Krebs' solution bubbled with a […] was suspended in an Organ bath filled with the Krebs' solution kept at 32° C. The gaseous mixture was passed through the Organ bath, and a diastolic tension was adjusted to 1 g. The contraction of the atrium was recorded by a force displacement transducer, and the heart rate was measured by interlocking a heart rate meter to the transducer.
Histamine (used in the form of dihydrochloride; the same hereinafter) was added to the Organ bath cumulatively in a concentration of 1×10^-8 M to 3×10^-5 M. Thus, the dose-response curve of histamine was obtained. The Organ bath was washed several times, and each of the test compounds (1×10^-6, 1×10^-7 M) was added to the Organ bath, and a dose-response curve of histamine in the presence of the test compound was obtained 10 minutes later.
The pA2 value of each of the test compound was determined from the first histamine dose-response curve and the histamine dose-response curve obtained in the presence of the test compounds by the method of J. M. Van Rossum (Arch. Int. Pharmacodyn. Ther., 143-299, 1963).

On to `CN/C(=N/CCSCc1nc[nH]c1C)NC#N` [Cimetidine, cimetidine, reference compound], for which the Kb is 316 nM.
